Rows were chosen to be rich in hits. Some 16% of all compounds tested hit in one or more screens of this group.
DT40 TDP1 no CPT: qHTS for Inhibitors of human tyrosyl-DNA phosphodiesterase 1 (TDP1): qHTS in cells in absence of CPT; DT40 Tdp1-/- hTDP1 cells, no CPT, ATP luminescence, 48 h; Potency, µM (top dose mostly 46.2 µM), for inactives: at the highest dose activity change, negative = growth inhibition, actives largely listed as inhibitors; 15% of 420,000 active; note: potency is the fitted concentration of half-maximal effect; % is set by controls: 0 for no effect and ±100 for the full control effect; nearly all actives have a fitted effect of over 55% in size
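No-CPT arm: Tdp1-/-;hTDP1 DT40 cells (400/well) plus compounds, incubated ≥48 hr at 37 °C. Readout CellTiter-Glo luminescence.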
TDP1 block: TDP1 (human) enzyme inhibition; Potency, µM (highest dose often 130 µM), without a hit: top-dose activity change, negative = inhibition, actives largely listed as inhibitors; recombinant TDP1, AlphaScreen DNA substrate cleavage; 0.28% of 350,000 active; note: potency is the fitted concentration of half-maximal effect; % is set by controls: 0 for no effect and ±100 for the full control effect; nearly all actives have a fitted effect of over 40% in size
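Compounds were preincubated with Tdp1 (1 nM final) for 15 min at room temperature before substrate (15 nM final) started a 5 min reaction; beads (10 ug/ml final) were then added for 10 min before AlphaScreen detection.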
miR-21 reporter: miR-21 reporter, rising signal; HeLa miR-21 FLuc reporter, luciferase, 48 h; Potency, µM (doses to about 38.3 µM), for inactives: at the highest dose reporter change, positive = more light; 340,000 tested, under 10 active; AID 2288; active = well fitted rising curve with a large enough effect; inconclusive = small, poorly fitted or top-dose-only effect; inactive = no such curve, though single readings can be large or run the other way;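 further: % of control where 0% means no effect; miR-21 action dims this reporter so a rising signal means less miR-21 action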
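HeLa cells endogenously expressing miR-21, stably carrying CMV-driven firefly luciferase with a downstream miR-21 binding site, 2000 cells/well. Titrations up to approximately 40 uM, 48 hours; luciferase luminescence read.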
TDP1 cell CPT: growth inhibition of DT40 Tdp1-/-;hTDP1 cells with camptothecin (screen for TDP1 inhibitors); chicken DT40 Tdp1-/-;hTDP1 cells + 20 nM CPT, ATP luminescence, 48 h; Potency, µM (titrated, usually from 46.2 µM), for the others: at the top dose activity change, negative = growth inhibition, hits mostly inhibitors; 12% of 420,000 active; AID 686979; note: potency is the fitted concentration of half-maximal effect; % is set by controls: 0 for no effect and ±100 for the full control effect; nearly all actives have a fitted effect of over 55% in size
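Chicken DT40 Tdp1-/- cells stably complemented with human TDP1 were seeded at 400 cells/well in medium containing 20 nM camptothecin, exposed to pin-transferred compounds, and grown at 37 °C for at least 48 hr. Viability was read as ATP luminescence.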
uPA generation: inhibitors of cell surface uPA generation; cell surface uPA generation assay, qHTS; Potency, µM (top dose mostly 38.3 µM), inactives show at the highest dose activity change, negative = inhibition, actives largely listed as inhibitors; 0.31% of 330,000 active; active = well fitted inhibition curve with a large enough effect; inconclusive = small, poorly fitted or top-dose-only effect; inactive = no such curve, though single readings can be large or run the other way; tested in mouse RAW 264.7 cells; note: potency is the fitted concentration of half-maximal effect; % is set by controls: 0 for no effect and ±100 for the full control effect; nearly all actives have a fitted effect of over 55% in size
Active calls of the source: *; ? = inconclusive; / = no result given; [ ] = another dose, or the depositor's remark. Unless noted, calls come from the whole dose curve; as a rule, active = well fitted curve in the direction sought with a large enough effect; inconclusive = small, poorly fitted or top-dose-only effect, or another doubt; inactive = no such curve, though single readings can be large; an effect the other way counts as inactive or inconclusive.

Field names: A = DT40 TDP1 no CPT; B = TDP1 block; C = miR-21 reporter; D = TDP1 cell CPT; E = uPA generation
Cc1ccc(OCc2ccc(C(=O)NN)o2)cc1C
  A: -8.1%	B: 4.1%	C: -33.4%	D: 4.6%	E: 10.5%

Cc1ccc2oc(-c3cccc(NC(=O)c4ccc(Br)o4)c3C)nc2c1
  A: ?	B: 1.1%	C: -39.6%	D: ?	E: -6.0%

COc1ccccc1NC(=O)c1ccc(COc2ccccc2OC)o1
  A: -23.8%	B: 5.4%	C: -11.2%	D: -15.9%	E: -2.9%

COC(=O)c1ccccc1NC(=O)c1cccc(NC(=O)c2ccc(Br)o2)c1C
  A: 1.84µM*	B: 2.3%	C: -3.2%	D: 2.91µM*	E: -12.1%

CCOC(=O)C1CCN(C(=O)c2c(C)oc3c2C(=O)c2ccccc2C3=O)CC1
  A: 7.31µM*	B: 3.9%	C: 29.6%	D: 5.17µM*	E: ?

CC1CCN(C(=O)c2cc3ccccc3c(=O)o2)CC1
  A: -28.9%	B: 0.0%	C: -49.4%	D: ?	E: -1.6%

Cc1oc2c(c1C(=O)N1CCC(C)CC1)C(=O)c1ccccc1C2=O
  A: 11.6µM*	B: 1.3%	C: 24.9%	D: 7.31µM*	E: 10µM*

COc1ccc(CC(=O)Nc2ccc(/C(C)=N\NC(=O)c3ccc(Br)o3)cc2)cc1
  A: -12.6%	B: 2.3%	C: -31.9%	D: 1.2%	E: -0.4%

CNc1c(NC(=O)c2ccc(OC)c(OC)c2)c(=O)oc2ccccc12
  A: -7.9%	B: 2.5%	C: -13.9%	D: 4.2%	E: /

O=C(c1ccc(-c2cccc(C(F)(F)F)c2)o1)N1CCCCCCC1
  A: -12.1%	B: /	C: /	D: ?	E: 21.2%

O=C(CN1CCN(C(=O)c2ccco2)CC1)Nc1cc(C(F)(F)F)ccc1Cl
  A: 23.1µM*	B: -3.9%	C: -5.0%	D: ?	E: -5.1%

N#CCCN1CCN(C(=S)c2ccc(-c3cccc(Cl)c3)o2)CC1
  A: -29.0%	B: 10.9%	C: -72.0%	D: ?	E: -6.9%

O=C(c1ccco1)N1CCN(C(=O)c2ccc(-c3ccc(Cl)cc3)o2)CC1
  A: ?	B: 9.1%	C: /	D: 18.4µM*	E: -16.4%

N#CCCN1CCN(C(=S)c2ccc(-c3ccc(Cl)c(Cl)c3)o2)CC1
  A: ?	B: 8.3%	C: -49.4%	D: 25.9µM*	E: 7.8%

CC1CN(C(=O)c2ccc(-c3cccc(C(F)(F)F)c3)o2)CC(C)O1 (centres undefined)
  A: 13µM*	B: 1.5%	C: /	D: ?	E: 3.9%

One compound at a time (already shown). Screens in order: DT40 TDP1 no CPT	TDP1 block	miR-21 reporter	TDP1 cell CPT	uPA generation
Entry for `O=C(c1ccc(-c2cccc(C(F)(F)F)c2)o1)N1CCCCCCC1` = -12.1%	/	/	?	21.2%
Entry for `COC(=O)c1ccccc1NC(=O)c1cccc(NC(=O)c2ccc(Br)o2)c1C` = 1.84µM*	2.3%	-3.2%	2.91µM*	-12.1%
Entry for `Cc1oc2c(c1C(=O)N1CCC(C)CC1)C(=O)c1ccccc1C2=O` = 11.6µM*	1.3%	24.9%	7.31µM*	10µM*

Next records.
Field names: A = DT40 TDP1 no CPT; B = TDP1 block; C = miR-21 reporter; D = TDP1 cell CPT; E = uPA generation
Nc1nonc1NC(=O)CSc1nc2ccccc2s1
  A: -11.6%	B: 5.1%	C: -3.3%	D: -4.1%	E: 7.1%

OCCC1CN(C/C(Cl)=C/c2ccccc2)CCN1C1CCCC1 (centres undefined)
  A: -5.5%	B: 3.0%	C: -6.3%	D: 5.1%	E: 0.6%

S=C(c1ccc(-c2cccc(Cl)c2)o1)N1CCCCC1
  A: ?	B: 7.5%	C: -63.9%	D: -3.6%	E: -8.4%

O=C(c1ccco1)N1CCN(C(=O)c2ccc(-c3cccc(C(F)(F)F)c3)o2)CC1
  A: 20.6µM*	B: /	C: /	D: ?	E: -1.6%

Cc1cc(Cl)c2oc(C(=O)N3CCN(C(=O)c4ccco4)CC3)c(C)c2c1
  A: ?	B: 3.2%	C: -91.2%	D: 16.4µM*	E: 4.9%

CC(=O)N1CCN(C(=S)c2ccc(-c3ccc(Cl)cc3)o2)CC1
  A: 25.9µM*	B: 11.5%	C: -30.3%	D: ?	E: 3.8%

Cc1cc(Cl)c2oc(C(=O)N3CCOCC3)c(C)c2c1
  A: -22.3%	B: /	C: /	D: ?	E: /

O=C(NCc1ccc(Cl)cc1)C1=Cc2cc(Br)ccc2OC1
  A: ?	B: -4.1%	C: -1.0%	D: ?	E: /

CCCCS(=O)CC(O)COc1ccc(C(C)(C)C)cc1 (centres undefined)
  A: -15.7%	B: 1.0%	C: -16.0%	D: -26.7%	E: -11.8%

CCOC(=O)c1c(CSc2cccs2)n(C)c2cc(Br)c(O)c(CN(C)C)c12
  A: 18.4µM*	B: 7.6%	C: 15.0%	D: 16.4µM*	E: 0.7%

CCOC(=O)c1c(C)n(C)c2cc(Br)c(O)c(O)c12
  A: ?	B: 3.7%	C: -7.4%	D: -28.5%	E: -24.0%

CCCOc1ccc(N2C(=O)CC(NCCCN3CCC(C(N)=O)CC3)C2=O)cc1 (centres undefined)
  A: ?	B: /	C: /	D: 25.9µM*	E: 10.4%

COc1ccccc1CNc1ncnc2ccc(-c3cccnc3)cc12
  A: 20.6µM*	B: 16.4%[56.1 µM]	C: /	D: ?	E: /

COc1ccccc1CNc1ncnc2ccc(-c3ccc(N(C)C)cc3)cc12
  A: 13µM*	B: 22.7%[56.1 µM]	C: /	D: 16.4µM*	E: /

CS(=O)(=O)NCCSc1cc(C(F)(F)F)nc2ccccc12
  A: ?	B: 5.5%	C: -13.2%	D: 8.3%	E: -13.8%

CCC(CC)NC(=O)COC(=O)CCC(=O)c1cccs1
  A: 7.8%	B: -0.6%	C: -2.8%	D: -0.1%	E: 16.5%

Screens deposited in PubChem by National Center for Advancing Translational Sciences (NCATS).
